Source: paper PMC3849192, “A Simple Method for Assessing Free Brain/Free Plasma Ratios Using an In Vitro Model of the Blood Brain Barrier” (PLoS ONE, 2013)

System: in vitro BBB model (co-culture of bovine brain capillary endothelial cells and rat glial cells)
Assay: In vitro BBB co-culture model, Cu,br/Cu,pl ratio

Cc1nc2n(c(=O)c1CCN1CCC(c3noc4cc(F)ccc34)CC1)CCCC2 [Risperidone]
In vitro Cu,br/Cu,pl Mean 1 h (2 µM in luminal compartment, abluminal/luminal concentration at 1 h): 0.56
In vitro Cu,br/Cu,pl Mean steady-state (steady-state ratio computed from 1 h data with the blue-norna steady-state calculator): 0.60
